For one compound, IC50 results are on record in ChEMBL document CHEMBL4732134, “Identification of N-phenyl-3-methoxy-4-pyridinones as orally bioavailable H receptor antagonists and β-amyloid aggregation inhibitors for the treatment of Alzheimer's disease” (Eur J Med Chem, 2021).

Sequences of proteins named here, by UniProt entry; tags and fusion partners are left off. A change or cut given only in a name is not applied to a line headed by its entry.
UniProt Q9Y5N1: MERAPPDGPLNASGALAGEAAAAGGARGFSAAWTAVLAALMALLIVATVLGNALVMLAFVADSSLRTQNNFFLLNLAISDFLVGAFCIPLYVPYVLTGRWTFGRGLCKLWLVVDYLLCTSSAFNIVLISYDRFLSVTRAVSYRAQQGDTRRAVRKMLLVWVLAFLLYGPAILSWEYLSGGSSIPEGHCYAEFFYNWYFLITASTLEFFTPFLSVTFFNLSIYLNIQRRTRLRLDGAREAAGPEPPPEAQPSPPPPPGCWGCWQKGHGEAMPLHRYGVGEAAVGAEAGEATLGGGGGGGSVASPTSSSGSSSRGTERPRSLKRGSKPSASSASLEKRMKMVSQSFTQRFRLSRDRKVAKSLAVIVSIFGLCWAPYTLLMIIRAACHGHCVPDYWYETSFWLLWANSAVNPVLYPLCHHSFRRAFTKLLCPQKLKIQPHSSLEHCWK

For the experiment, the target named is Histamine H3 receptor (Homo sapiens, UniProt Q9Y5N1). The experiment is described as follows: Antagonist activity at human histamine H3 receptor expressed in HEK293 cells preincubated for 5 mins followed by forskolin-stimulation and measured after 5 hrs by CRE-driven luciferase reporter gene assay. It is filed as functional, cell-based. (In a reporter assay the amount or activity of a reporter protein is the signal.)

For the compound `NC(=NCc1ccc(Cl)cc1)SCCCc1cnc[nH]1` [CLOBENPROPIT], the 50% inhibitory concentration (IC50) – broadly, the concentration that gives 50% inhibition – was 1.15 nM.
